# Laboratory results as given in PMC4153739 (Biochemistry, 2012).
# System: four NR2 NMDA receptor subtypes (NR2A, NR2B, NR2C, NR2D with NR1-2b)
# Assay type: cell-based, rat
compound,measurement,value
CC(C)C[C@H](NC(=O)[C@H](CC(C(=O)O)C(=O)O)NC(=O)[C@H](CCCNC(=N)N)NC(=O)[C@H](C)NC(=O)[C@H](Cc1ccccc1)NC(=O)[C@H](CC(C(=O)O)C(=O)O)NC(=O)[C@@H]1C[C@@H](O)CN1C(=O)[C@H](C)NC(=O)[C@H](CCCCN)NC(=O)[C@H](CC(C(=O)O)C(=O)O)NC(=O)[C@H](C)NC(=O)[C@H](Cc1ccc(O)cc1)NC(=O)[C@H](CC(C(=O)O)C(=O)O)NC(=O)[C@H](CC(C(=O)O)C(=O)O)NC(=O)[C@H](CCC(=O)O)NC(=O)CN)C(=O)N[C@@H](C)C(=O)N[C@@H](CC(N)=O)C(N)=O [ConRl-B[L5Y]],"activity on the four NR2 NMDA receptor subtypes, in words",very similar to native conRl-B
